Target: Serine/threonine-protein kinase B-raf (Homo sapiens, UniProt P15056, V600E)

Chains of the proteins cited; added tags and fusions are not shown. Residues count along the entry.
UniProt P15056, 2-766 V600E limits assumed: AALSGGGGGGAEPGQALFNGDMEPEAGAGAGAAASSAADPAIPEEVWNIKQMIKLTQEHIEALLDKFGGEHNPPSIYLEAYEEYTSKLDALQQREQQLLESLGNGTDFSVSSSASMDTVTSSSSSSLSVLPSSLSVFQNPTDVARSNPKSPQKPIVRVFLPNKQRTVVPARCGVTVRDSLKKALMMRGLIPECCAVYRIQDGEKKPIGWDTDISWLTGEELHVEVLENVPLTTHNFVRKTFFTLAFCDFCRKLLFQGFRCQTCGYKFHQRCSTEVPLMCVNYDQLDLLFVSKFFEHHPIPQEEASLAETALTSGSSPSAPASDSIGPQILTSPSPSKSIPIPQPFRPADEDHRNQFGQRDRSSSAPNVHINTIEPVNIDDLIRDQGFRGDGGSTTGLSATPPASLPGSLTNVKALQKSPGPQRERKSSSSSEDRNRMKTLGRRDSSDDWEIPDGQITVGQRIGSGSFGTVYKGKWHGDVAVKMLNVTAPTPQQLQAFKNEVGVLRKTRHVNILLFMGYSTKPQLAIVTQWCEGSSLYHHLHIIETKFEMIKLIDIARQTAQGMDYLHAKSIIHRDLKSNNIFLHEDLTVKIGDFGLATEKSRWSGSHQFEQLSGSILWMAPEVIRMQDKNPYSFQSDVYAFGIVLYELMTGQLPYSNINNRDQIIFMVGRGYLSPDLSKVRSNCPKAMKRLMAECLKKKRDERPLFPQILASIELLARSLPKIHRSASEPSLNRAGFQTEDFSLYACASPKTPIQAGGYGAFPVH

IC50: 4.9 nM
Compound: COc1nnc(-c2cc(NC(=O)c3ccnc(C(C)(C)F)c3)cnc2C)cc1N1CCOCC1

From ChEMBL document CHEMBL5725296, “Biaryl amide compounds as kinase inhibitors” (2017)
